The values that follow are results of earlier work, collected in PMC11335710, “Sitagliptin elevates plasma and CSF incretin levels following oral administration to nonhuman primates: relevance for neurodegenerative disorders” (GeroScience, 2024).

The data set concerns DPP-4. To be noted: rat, human clinically equivalent doses; cited from earlier work.

Regarding `N[C@@H](CC(=O)N1CCn2c(nnc2C(F)(F)F)C1)Cc1cc(F)c(F)cc1F` [sitagliptin], the “Inhibition of brain DPP-4 activity” value was over 20% and the “Inhibition of plasma DPP-4 activity” value is recorded as over 60%.
